# In US9539349B2, “Formulation, apparatus and method for stabilizing radiopharmaceuticals” (Siemens Medical Solutions USA, Inc., priority 2010, dated 2017):
# Assay: Radiochemical purity / percent stability of aged radiopharmaceutical solutions by radio-analytical HPLC
# Conditions: 8 vol. % EtOH:phosphate
smiles,measurement,setting,value
Cc1cn([C@H]2C[C@H]([18F])[C@@H](CO)O2)c(=O)[nH]c1=O [[F-18]FLT],% stability 3.25 hr,"[F-18]FLT 118.7 mCi/mL, maleic acid + Air headspace",99.8%
same,% stability 3.5 hr,"[F-18]FLT 197.1 mCi/mL, maleic acid (0.1 mg/mL) + O2",99.2%
